The subject of test [1] is 5637. The experiment in a line: Antiproliferative activity against human 5637 cells assessed as inhibition of cell growth after 24 hrs by MTT assay. Format: functional, cell-based.
Test [2] deals with 5637. The experiment in a line: Antiproliferative activity against human 5637 cells assessed as inhibition of cell growth after 48 hrs by MTT assay. Format: functional, cell-based.

Consider `O=C1N[C@H]2[C@H](CS[C@H]2CCCCC(=O)OCCCC[Te]c2ccccc2)N1`, for which the inhibition entry in the test with 5637 [1] and in the test with 5637 [2] was “Dose-dependent effect” throughout.
As to `O=C1N[C@H]2[C@H](CS[C@H]2CCCCC(=O)OCCCCC[Te]c2ccccc2)N1`, the inhibition entry in the test with 5637 [1] and with 5637 [2] was “Dose-dependent effect” in each case.

Values taken from ChEMBL document CHEMBL4619720, “Synthesis and biological evaluation of new antioxidant and antiproliferative chalcogenobiotin derivatives for bladder carcinoma treatment” (Bioorg Med Chem, 2020).
